Legend:
Type in all cases: binding
[1] = system: Active Motif #39161, anti-H3K9me3; assay: Histone peptide microarray, Active Motif 39161; conditions: Active Motif 39161 (anti-H3K9me3) hits;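 note: normalized to the highest peptide average per subarray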
Protocol: (§1) Peptide microarrays were fabricated using an Aushon 2470 microarrayer and used as described ([Cornett et al., 2017]) with the following modifications. Protein and antibody hybridization steps were performed in buffer containing 25 mM HEPES pH 7.5, 100 mM NaCl, 0.5% BSA (w/v), and 0.1% NP-40. Slides were washed 3 × 5 min in PBS supplemented with 0.1% Tween-20 between each hybridization step. Antibodies used were primary anti-GST (Sigma #7781, 1:2,000 dilution) and an AlexaFluor 647-labeled secondary antibody (Life Technologies A-21245, 1:5,000 dilution). […] Full lists of peptides queried by array analysis are in Supplementary Table S2.

[2] = system: ABClonal #A2355, anti-H3K4me1; assay: Histone peptide microarray, ABclonal A2355; conditions: Abclonal A2355 (anti-H3K4me1) hits;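 note: normalized to the highest peptide average per subarray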
Protocol: as §1

[3] = system: Abcam #ab8895, anti-H3K4me1; assay: Histone peptide microarray, Abcam ab8895; conditions: Abcam ab8895 (anti-H3K4me1) hits, average signal per peptide;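 note: normalized to the highest peptide average per subarray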
Protocol: as §1

CDYL2 chromo = molecular target: T1, CDYL2 chromo (Homo sapiens, UniProt Q8N8U2); assay: Histone peptide microarray, CDYL2 chromo; conditions: normalized histone peptide array signal, hits; hybridization with 1 M CDYL2 chromo (so in the source); two subarrays
T1 construct: 1-75; made in house; host or cells: E. coli BL21
T1 sequence (Q8N8U2 1-75): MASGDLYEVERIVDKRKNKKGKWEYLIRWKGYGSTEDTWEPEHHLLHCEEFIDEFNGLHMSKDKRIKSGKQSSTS
Protocol: (§2) Peptide microarrays were fabricated using an Aushon 2470 microarrayer and used as described ([Cornett et al., 2017]) with the following modifications. Protein and antibody hybridization steps were performed in buffer containing 25 mM HEPES pH 7.5, 100 mM NaCl, 0.5% BSA (w/v), and 0.1% NP-40. Slides were washed 3 × 5 min in PBS supplemented with 0.1% Tween-20 between each hybridization step. Antibodies used were primary anti-GST (Sigma #7781, 1:2,000 dilution) and an AlexaFluor 647-labeled secondary antibody (Life Technologies A-21245, 1:5,000 dilution). Arrays were scanned using an Innopsys InnoScan 110AL microarray scanner and analyzed using ArrayNinja ([Dickson et al., 2016]). Full lists of peptides queried by array analysis are in Supplementary Table S2.

MPP8 chromo = molecular target: T2, MPP8 chromo (Homo sapiens, UniProt Q99549); assay: Histone peptide microarray, MPP8 chromo; conditions: normalized histone peptide array signal, hits; hybridization with 1 M MPP8 chromo (so in the source); two subarrays
T2 construct: 50-118; made in house; host or cells: E. coli BL21
T2 sequence (Q99549 50-118): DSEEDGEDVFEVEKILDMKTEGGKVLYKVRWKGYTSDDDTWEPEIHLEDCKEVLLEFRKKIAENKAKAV
Protocol: as §2

Row | Avg Signal (CDYL2 chromo) | Avg Signal (MPP8 chromo) | Substance | Avg Signal [1] | Avg Signal [2] | Avg Signal [3]
1 |  |  | ARTKQTARKSTGGKAPR(Me2a)K(Ac)QLATKAA-Peg-Biot [H3.1R17me2aK18ac] | 0.007729 | 0.006138 | 0.2016
2 | 0.1146 | 0.2383 | ARTKQTARK(Me2)STGGKA-Peg-Biot [H3.1K9me2 H3.1(1-15)] |  |  | 

Reference: article PMC7160673, “A Degenerate Peptide Library Approach to Reveal Sequence Determinants of Methyllysine-Driven Protein Interactions” (Frontiers in Cell and Developmental Biology, 2020)
